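Method: 48-hour compound exposure of cells in 96-well plates, five concentrations, linear interpolation of endpoints. Here, GI50 denotes the concentration required for 50% inhibition of growth. The concentration for full growth arrest is given as TGI.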
Legend:
Experiment in all cases: NCI-60 cell line screen, 48 h; in the data active = GI50 below about 0.43 µM; inactive = the rest
[1] = tested on: SK-MEL-5 melanoma
[2] = tested on: CAKI-1 renal
[3] = tested on: OVCAR-5 ovarian
[4] = tested on: HCT-116 colon
[5] = tested on: LXFL 529 NSCLC
[6] = tested on: DMS 273 small cell lung
[7] = tested on: DMS 114 small cell lung
[8] = tested on: M19-MEL melanoma
[9] = tested on: CCRF-CEM leukemia
[10] = tested on: DLD-1 colon
[11] = tested on: SF-268 CNS
[12] = tested on: NCI-H522 lung
[13] = tested on: HCT-15 colon
[14] = tested on: TK-10 renal
[15] = tested on: ACHN renal
[16] = tested on: SF-295 CNS
[17] = tested on: OVCAR-4 ovarian
[18] = tested on: SF-539 CNS
[19] = tested on: SNB-19 CNS
[20] = tested on: UACC-62 melanoma
[21] = tested on: COLO 205 colon
[22] = tested on: UO-31 renal
[23] = tested on: SN12C renal
[24] = tested on: IGROV1 ovarian
[25] = tested on: KM20L2 colon
[26] = tested on: U251 CNS
[27] = tested on: OVCAR-3 ovarian
[28] = tested on: HCC-2998 colon
[29] = tested on: HOP-62 NSCLC
[30] = tested on: SR leukemia
[31] = tested on: SNB-75 CNS
[32] = tested on: K-562 leukemia
[33] = tested on: NCI-H23 lung
[34] = tested on: M14 melanoma
[35] = tested on: SK-OV-3 ovarian
[36] = tested on: SK-MEL-28 melanoma
[37] = tested on: HT29 colon
[38] = tested on: KM12 colon
[39] = tested on: RPMI-8226 leukemia
[40] = tested on: A549 NSCLC
[41] = tested on: HOP-18 NSCLC
[42] = tested on: XF 498 CNS
[43] = tested on: NCI-H322M lung
[44] = tested on: 786-0 renal
[45] = tested on: SK-MEL-2 melanoma
[46] = tested on: EKVX NSCLC
[47] = tested on: OVCAR-8 ovarian
[48] = tested on: NCI-H460 lung
[49] = tested on: NCI-H226 lung
[50] = tested on: MALME-3M melanoma
[51] = tested on: A498 renal
[52] = tested on: MOLT-4 leukemia
[53] = tested on: UACC-257 melanoma
[54] = tested on: HL-60(TB) leukemia
[55] = tested on: LOX IMVI melanoma
[56] = tested on: RXF 393 renal

CCOP(=O)(OCC)OP1OCC(C)(C)CO1
> 100 µM: TGI [1] | TGI [2] | TGI [3] | TGI [5] | TGI [6] | TGI [8] | TGI [9] | TGI [11] | TGI [12] | TGI [13] | TGI [14] | TGI [15] | TGI [16] | TGI [17] | TGI [18] | TGI [19] | TGI [20] | TGI [21] | TGI [22] | TGI [23] | TGI [24] | TGI [25] | TGI [26] | TGI [27] | TGI [28] | TGI [29] | TGI [31] | TGI [32] | TGI [33] | TGI [34] | TGI [35] | TGI [36] | TGI [37] | TGI [38] | TGI [40] | TGI [41] | TGI [42] | TGI [43] | TGI [44] | TGI [45] | TGI [46] | TGI [47] | TGI [48] | TGI [49] | TGI [50] | TGI [51] | TGI [52] | TGI [53] | TGI [54] | TGI [56]
58.3 µM: TGI [4]
36.7 µM: TGI [55]
54.7 µM: TGI [10]
29.9 µM: TGI [7]
51.3 µM: TGI [30]
51.2 µM: TGI [39]
inactive: GI50 [1] > 100 µM | GI50 [2] > 100 µM | GI50 [3] > 100 µM | GI50 [4] 20.5 µM | GI50 [5] > 100 µM | GI50 [6] 46.3 µM | GI50 [7] 16 µM | GI50 [8] > 100 µM | GI50 [9] 42.2 µM | GI50 [10] 23.2 µM | GI50 [11] 39 µM | GI50 [12] > 100 µM | GI50 [13] > 100 µM | GI50 [14] > 100 µM | GI50 [15] > 100 µM | GI50 [16] > 100 µM | GI50 [17] > 100 µM | GI50 [18] > 100 µM | GI50 [19] > 100 µM | GI50 [20] > 100 µM | GI50 [21] 30.7 µM | GI50 [22] > 100 µM | GI50 [23] > 100 µM | GI50 [24] > 100 µM | GI50 [25] 47.5 µM | GI50 [26] > 100 µM | GI50 [27] > 100 µM | GI50 [28] > 100 µM | GI50 [29] > 100 µM | GI50 [30] 26.5 µM | GI50 [31] > 100 µM | GI50 [32] > 100 µM | GI50 [33] > 100 µM | GI50 [34] > 100 µM | GI50 [35] > 100 µM | GI50 [36] > 100 µM | GI50 [37] 56.7 µM | GI50 [38] > 100 µM | GI50 [39] 25.9 µM | GI50 [40] > 100 µM | GI50 [41] > 100 µM | GI50 [42] > 100 µM | GI50 [43] > 100 µM | GI50 [44] 79.1 µM | GI50 [45] > 100 µM | GI50 [46] > 100 µM | GI50 [47] > 100 µM | GI50 [48] 34.6 µM | GI50 [49] > 100 µM | GI50 [50] > 100 µM | GI50 [51] > 100 µM | GI50 [52] > 100 µM | GI50 [53] > 100 µM | GI50 [54] > 100 µM | GI50 [55] 20.1 µM | GI50 [56] > 100 µM

Source: PubChem BioAssay (NCI)
